# According to ChEMBL document CHEMBL5712904, “Ovarian Cancer Relies on Glucose Transporter 1 to Fuel Glycolysis and Growth: Anti-Tumor Activity of BAY-876” (Cancers (Basel), 2018):
# Calls of active or inactive are those of the source. No cut-off for these calls is given here.
# How the values were obtained:
# [1] = molecular target: T1, Solute carrier family 2, facilitated glucose transporter member 1 (Homo sapiens) (UniProt P11166); conditions: HEY, dose 75.0 nM, time 24.0 hrs
# T1 sequence (whole entry): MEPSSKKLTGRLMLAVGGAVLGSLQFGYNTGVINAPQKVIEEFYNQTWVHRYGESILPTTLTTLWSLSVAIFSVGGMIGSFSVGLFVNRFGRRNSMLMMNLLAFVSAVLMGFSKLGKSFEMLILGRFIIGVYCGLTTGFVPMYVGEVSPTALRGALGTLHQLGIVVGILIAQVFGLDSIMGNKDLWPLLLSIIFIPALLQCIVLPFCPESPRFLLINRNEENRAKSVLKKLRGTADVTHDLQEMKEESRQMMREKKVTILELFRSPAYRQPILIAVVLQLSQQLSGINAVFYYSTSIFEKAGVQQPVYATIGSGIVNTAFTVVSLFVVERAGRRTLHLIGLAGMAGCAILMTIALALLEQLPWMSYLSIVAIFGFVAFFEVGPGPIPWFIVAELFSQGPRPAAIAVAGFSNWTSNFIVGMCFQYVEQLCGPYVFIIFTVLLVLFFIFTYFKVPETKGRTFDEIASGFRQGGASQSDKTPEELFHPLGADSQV
# [2] = molecular target: T1, Solute carrier family 2, facilitated glucose transporter member 1 (Homo sapiens); conditions: OVCAR-3, dose 75.0 nM, time 24.0 hrs
# [3] = molecular target: T1, Solute carrier family 2, facilitated glucose transporter member 1 (Homo sapiens); conditions: SK-OV-3, dose 75.0 nM, time 24.0 hrs
# [4] = molecular target: T1, Solute carrier family 2, facilitated glucose transporter member 1 (Homo sapiens); conditions: A2780, dose 75.0 nM, time 24.0 hrs
# [5] = molecular target: T1, Solute carrier family 2, facilitated glucose transporter member 1 (Homo sapiens); conditions: A2780, dose 75.0 nM, time 24.0 hrs; remark: listed apart in the source
# [6] = molecular target: T1, Solute carrier family 2, facilitated glucose transporter member 1 (Homo sapiens); conditions: OVCAR-3, dose 75.0 nM, time 24.0 hrs; remark: listed apart in the source
# [7] = molecular target: T1, Solute carrier family 2, facilitated glucose transporter member 1 (Homo sapiens); conditions: SK-OV-3, dose 75.0 nM, time 24.0 hrs; remark: listed apart in the source
# [8] = molecular target: T1, Solute carrier family 2, facilitated glucose transporter member 1 (Homo sapiens); conditions: HEY, dose 75.0 nM, time 24.0 hrs; remark: listed apart in the source
# [9] = molecular target: T1, Solute carrier family 2, facilitated glucose transporter member 1 (Homo sapiens); conditions: A2780, dose 75.0 nM, time 24.0 hrs; remark: listed apart in the source
# [10] = molecular target: T1, Solute carrier family 2, facilitated glucose transporter member 1 (Homo sapiens); conditions: SK-OV-3, dose 75.0 nM, time 24.0 hrs; remark: listed apart in the source
# [11] = molecular target: T1, Solute carrier family 2, facilitated glucose transporter member 1 (Homo sapiens); conditions: OVCAR-3, dose 75.0 nM, time 24.0 hrs; remark: listed apart in the source
# [12] = molecular target: T1, Solute carrier family 2, facilitated glucose transporter member 1 (Homo sapiens); conditions: OVCAR-3, dose 75.0 nM, time 24.0 hrs; remark: listed apart in the source
# [13] = molecular target: T1, Solute carrier family 2, facilitated glucose transporter member 1 (Homo sapiens); conditions: SK-OV-3, dose 75.0 nM, time 24.0 hrs; remark: listed apart in the source
# [14] = molecular target: T1, Solute carrier family 2, facilitated glucose transporter member 1 (Homo sapiens); conditions: A2780, dose 75.0 nM, time 24.0 hrs; remark: listed apart in the source
# [15] = molecular target: T1, Solute carrier family 2, facilitated glucose transporter member 1 (Homo sapiens); conditions: A2780, dose 75.0 nM, time 24.0 hrs; remark: listed apart in the source
# [16] = molecular target: T1, Solute carrier family 2, facilitated glucose transporter member 1 (Homo sapiens); conditions: SK-OV-3, dose 75.0 nM, time 24.0 hrs; remark: listed apart in the source
# [17] = molecular target: T1, Solute carrier family 2, facilitated glucose transporter member 1 (Homo sapiens); conditions: SK-OV-3, dose 75.0 nM, time 24.0 hrs; remark: listed apart in the source
# [18] = molecular target: T1, Solute carrier family 2, facilitated glucose transporter member 1 (Homo sapiens); conditions: SK-OV-3, dose 75.0 nM, time 24.0 hrs; remark: listed apart in the source
# [19] = molecular target: T1, Solute carrier family 2, facilitated glucose transporter member 1 (Homo sapiens); conditions: SK-OV-3, dose 75.0 nM, time 24.0 hrs; remark: listed apart in the source
# [20] = molecular target: T1, Solute carrier family 2, facilitated glucose transporter member 1 (Homo sapiens); conditions: SK-OV-3, dose 75.0 nM, time 24.0 hrs; remark: listed apart in the source
# [21] = molecular target: T1, Solute carrier family 2, facilitated glucose transporter member 1 (Homo sapiens); conditions: SK-OV-3, dose 75.0 nM, time 24.0 hrs; remark: listed apart in the source
# [22] = molecular target: T1, Solute carrier family 2, facilitated glucose transporter member 1 (Homo sapiens); conditions: OVCAR-3, dose 75.0 nM, time 24.0 hrs; remark: listed apart in the source
# [23] = molecular target: T1, Solute carrier family 2, facilitated glucose transporter member 1 (Homo sapiens); conditions: OVCAR-3, dose 75.0 nM, time 24.0 hrs; remark: listed apart in the source
# [24] = molecular target: T1, Solute carrier family 2, facilitated glucose transporter member 1 (Homo sapiens); conditions: OVCAR-3, dose 75.0 nM, time 24.0 hrs; remark: listed apart in the source
# [25] = molecular target: T1, Solute carrier family 2, facilitated glucose transporter member 1 (Homo sapiens); conditions: OVCAR-3, dose 75.0 nM, time 24.0 hrs; remark: listed apart in the source
# [26] = molecular target: T1, Solute carrier family 2, facilitated glucose transporter member 1 (Homo sapiens); conditions: OVCAR-3, dose 75.0 nM, time 24.0 hrs; remark: listed apart in the source
# [27] = molecular target: T1, Solute carrier family 2, facilitated glucose transporter member 1 (Homo sapiens); conditions: A2780, dose 75.0 nM, time 24.0 hrs; remark: listed apart in the source
# [28] = molecular target: T1, Solute carrier family 2, facilitated glucose transporter member 1 (Homo sapiens); conditions: A2780, dose 75.0 nM, time 24.0 hrs; remark: listed apart in the source
# [29] = molecular target: T1, Solute carrier family 2, facilitated glucose transporter member 1 (Homo sapiens); conditions: A2780, dose 75.0 nM, time 24.0 hrs; remark: listed apart in the source
# [30] = molecular target: T1, Solute carrier family 2, facilitated glucose transporter member 1 (Homo sapiens); conditions: A2780, dose 75.0 nM, time 24.0 hrs; remark: listed apart in the source
smiles,measurement,setting,value
Cc1c(NC(=O)c2cc(C(N)=O)nc3cc(F)ccc23)c(C(F)(F)F)nn1Cc1ccc(C#N)cc1 [BAY-876],inhibition,[1],Dose-Dependent Effect
same,inhibition,[2],Dose-Dependent Effect
same,inhibition,[3],Dose-Dependent Effect
same,inhibition,[4],inactive
same,inhibition,[5],inactive
same,inhibition,[6],Active
same,inhibition,[7],Active
same,inhibition,[8],Active
same,inhibition,[9],inactive
same,inhibition,[10],Active
same,inhibition,[11],Active
same,inhibition,[12],Active
same,inhibition,[13],Active
same,inhibition,[14],inactive
same,inhibition,[15],inactive
same,inhibition,[16],Active
same,inhibition,[17],Active
same,inhibition,[18],Active
same,inhibition,[19],Active
same,inhibition,[20],Active
same,inhibition,[21],Active
same,inhibition,[22],Active
same,inhibition,[23],Active
same,inhibition,[24],Active
same,inhibition,[25],Active
same,inhibition,[26],Active
same,inhibition,[27],inactive
same,inhibition,[28],inactive
same,inhibition,[29],inactive
same,inhibition,[30],inactive
